Laboratory results from paper PMC10061512 (ACS Omega, 2023).

The chains behind the UniProt entries cited, without tags or fusion partners.
UniProt P81908, whole entry: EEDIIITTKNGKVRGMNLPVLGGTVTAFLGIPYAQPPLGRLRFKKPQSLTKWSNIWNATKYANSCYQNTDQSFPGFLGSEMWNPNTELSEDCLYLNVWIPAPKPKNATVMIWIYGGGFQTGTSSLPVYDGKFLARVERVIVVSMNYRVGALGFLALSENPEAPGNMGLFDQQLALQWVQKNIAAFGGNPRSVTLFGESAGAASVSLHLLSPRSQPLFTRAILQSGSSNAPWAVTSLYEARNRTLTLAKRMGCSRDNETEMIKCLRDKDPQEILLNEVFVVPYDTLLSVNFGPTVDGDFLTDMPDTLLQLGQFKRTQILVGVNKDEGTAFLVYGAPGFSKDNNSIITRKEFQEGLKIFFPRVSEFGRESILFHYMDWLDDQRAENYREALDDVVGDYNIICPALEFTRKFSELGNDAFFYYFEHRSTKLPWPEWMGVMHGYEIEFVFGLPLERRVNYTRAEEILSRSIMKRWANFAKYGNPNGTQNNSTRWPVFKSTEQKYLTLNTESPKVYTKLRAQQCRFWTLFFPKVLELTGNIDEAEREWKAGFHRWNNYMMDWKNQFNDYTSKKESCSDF

Target: eqBChE (Equus caballus, UniProt P81908)
Assay: BChE inhibition and enzyme kinetics, Ellman assay
Format: biochemical, equine

SMILES: O=c1ccc2ccc(O)cc2o1 [compound 17, 7-hydroxycoumarin]
- IC50: 180 ± 4.58 µM
